The target in this test is AKT1 WT (Homo sapiens (Human), UniProt P31749). The experiment in a line: Live cell target engagement (NanoBRET) in HEK293 cells. The test is classed as cell-based. The note with it: HEK293, 2 hours at 37° C.

Amino acid sequences for entries named in this document (tags omitted). A change or cut given only in a name is not applied to a line headed by its entry.
UniProt P31749: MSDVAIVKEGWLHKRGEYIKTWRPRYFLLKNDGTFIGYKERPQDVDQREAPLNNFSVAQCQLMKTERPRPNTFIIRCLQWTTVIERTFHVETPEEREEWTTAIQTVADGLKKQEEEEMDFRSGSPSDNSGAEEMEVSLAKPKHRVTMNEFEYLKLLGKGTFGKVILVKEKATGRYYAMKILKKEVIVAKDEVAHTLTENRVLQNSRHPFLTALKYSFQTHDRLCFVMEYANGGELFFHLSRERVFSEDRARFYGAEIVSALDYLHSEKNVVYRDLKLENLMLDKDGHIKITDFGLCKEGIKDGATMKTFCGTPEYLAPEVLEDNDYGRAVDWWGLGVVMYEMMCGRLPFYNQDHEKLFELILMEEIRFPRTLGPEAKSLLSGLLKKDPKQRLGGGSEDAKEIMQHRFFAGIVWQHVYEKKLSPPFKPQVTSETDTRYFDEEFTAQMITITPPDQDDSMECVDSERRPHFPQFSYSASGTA

A value given as a limit tells only on which side of the number the result lay.

The compound `Nc1ncccc1-c1nc2ccc(N3C4CCC3COC4)nc2n1-c1ccc(CNC(=O)Cc2ccc(C=O)c(O)c2)cc1` [Example 9, N-(4-(2-(2-aminopyridin-3-yl)-5-(3-oxa-8-azabicyclo[3.2.1]octan-8-yl)-3H-imidazo[4,5-b]pyridin-3-yl)benzyl)-2-(4-formyl-3-hydroxyphenyl)acetamide] registered an IC50 greater than 500 nM.

What is called IC50 is the concentration at which inhibition is half-maximal. Low values mean higher potency, high ones lower potency.
